The target of the assay is HaloTag-fused mGluR3 (UniProt P0A3G2+Q9QYS2, A155T/A167V/A172T/A224E/C128F/C176G/D78G/E160K/E257K/H272N/K175M/K195N/L47V/L88M/N227D/S58T/T264A/Y273L/Y87F). Put plainly: Saturation binding experiment of HaloTag TMR ligand. Details: species or system mouse. As for the experimental part:
HaloTag-fused or non-fused mGluR3 pDNA (1 μg/60-mm dish) was transfected into HEK293 cells grown to a confluence of about 70% by the lipofection method described above. […] After TMR staining, the 60-mm dish was washed with 3 mL of HBSS three times. The cells were suspended in buffer C (500 μL, 10 mM HEPES (pH 7.5), 140 mM NaCl, 4 mM KOH, 1 mM MgCl2, and 1.5 mM CaCl2) and were collected in a 1.5-mL tube. After centrifugation, the cellular precipitate was solubilized with 200 μL of buffer C containing 1% Triton X. After centrifugation again, the supernatant was collected, and the concentration of TMR bound to the solubilized receptor was quantified with a fluorescence spectrophotometer (RF-5300PC, Shimadzu). The sample was excited at 540 nm. The scattered light of the excitation light was removed with an 057 cut-off filter, and the fluorescence spectrum was then measured. As a standard sample, the TMR ligand in a known concentration was used (FIG. 2(a, b)). The non-specific binding was estimated by using a membrane fraction expressing mGluR3 not fused with HaloTag (FIG. 2(c)). The specific binding to HaloTag-fused mGluR3 was calculated by subtracting non-specific binding from the total binding amount to the cells expressing HaloTag-fused mGluR3. The specific binding and the non-specific binding were fitted using the following Hill equation (n: Hill coefficient).

Here are results for 1 compound from patent publication US11002728B2, “Method for evaluating activity of G protein-coupled receptor (GPCR)” (RIKEN, priority 2017, dated 2021).

Each structure is given as a SMILES string.

With `CN(C)c1ccc2c(-c3cc(C(=O)NCCOCCOCCCCCCCl)ccc3C(=O)[O-])c3ccc(=[N+](C)C)cc-3oc2c1`, the mGluR3 labeled result (300 nM TMR ligand, estimated from the regression curve) is recorded as “about 95%”. Besides, the EC50 (as a rule, the concentration that produces a half-maximal response) (read-out: EC50 of specific binding to HaloTag-fused mGluR3 (regression curve), HEK293 cells, 30 minutes, FIG. 2(c)) was 63 nM. For the setting “regression curve, FIG. 2(c)”, the Hill coefficient (commonly a measure of the steepness of the concentration-response curve) was determined as 1.9.
